Here are results for one substance from patent publication US8299089B2, “Multi-arm polymeric conjugates of 7-ethyl-10-hydroxycamptothecin for treatment of breast, colorectal, pancreatic, ovarian and lung cancers” (priority 2006, dated 2012).

Format in all cases: in vivo
The nature of data set [1]: Pharmacokinetics in tumor free Balb/C mice. Conditions: single injection 20 mg/kg; analyte intact conjugate. How it is done:
Tumor free Balb/C mice were injected with a single injection of 20 mg/kg 4armPEG-Gly-(7-ethyl-10-hydroxycamptothecin) conjugates. At various time points mice were sacrificed and plasma was analyzed for intact conjugates and released 7-ethyl-10-hydroxycamptothecin by HPLC. Pharmacokinetic analysis was done using non-compartmental analysis (WinNonlin).

Data set [2] is described as follows: Maximum tolerated dose (MTD) in nude mice.
The next data set can be described thus: Pharmacokinetics in rats. As to conditions: parent compound. How it is done:
Additionally, pharmacokinetic profiles of 4arm PEG-Gly-(7-ethyl-10-hydroxycamptothecin) were investigated in rats. In rats, does levels of 3, 10 and 30 mg/kg (7-ethyl-10-hydroxycamptothecin equivalent) were used. The pharmacokinetic profiles in rats were consistent with those of mice.
Enterohepatic circulation of released 7-ethyl-10-hydroxycamptothecin was observed both in mice and rats.

Broadly, the Vss is a proportionality between amount in the body and measured concentration, not a real space. As usually defined, the MTD is the highest dose tested that stayed within the study's limit of toxicity. High values mean better tolerability, low ones poorer tolerability. The clearance is the volume of plasma or blood freed of the substance per unit of time. Regarding “^40k4arm-PEG-Gly(20)-(7-ethyl-10-hydroxycamptothecin) [Compound 9]”, in data set [1], the Cmax is listed as 20,500 μg/mL, the “Terminal t1/2” value was 19.3 h and the volume of distribution (Vss) was 0.131 L/kg. In data set [2] (multiple dose (q2d×5)), the maximum tolerated dose (MTD) came out at 10 mg/kg. For the same substance, the MTD in data set [2] (single dose) is reported as 30 mg/kg. In addition, in “Pharmacokinetics in rats”, the clearance is 8.4 mL/day/kg. Further, in the data set “Pharmacokinetics in rats” (estimated), the “volume of distribution at steady state (Vss)” value was 0.00549 L/kg.
